In PMC9127186, “Molecular Basis Underlying Hepatobiliary and Renal Excretion of Phenolic Acids of Salvia miltiorrhiza Roots (Danshen)” (Frontiers in Pharmacology, 2022):

Key:
[1] = molecular target: T1, rat Oat2 (Rattus norvegicus, UniProt Q5RLM2); experiment: Cellular transport assay, HEK-293 cells expressing rat Oat2
T1 sequence (Q5RLM2 1-535): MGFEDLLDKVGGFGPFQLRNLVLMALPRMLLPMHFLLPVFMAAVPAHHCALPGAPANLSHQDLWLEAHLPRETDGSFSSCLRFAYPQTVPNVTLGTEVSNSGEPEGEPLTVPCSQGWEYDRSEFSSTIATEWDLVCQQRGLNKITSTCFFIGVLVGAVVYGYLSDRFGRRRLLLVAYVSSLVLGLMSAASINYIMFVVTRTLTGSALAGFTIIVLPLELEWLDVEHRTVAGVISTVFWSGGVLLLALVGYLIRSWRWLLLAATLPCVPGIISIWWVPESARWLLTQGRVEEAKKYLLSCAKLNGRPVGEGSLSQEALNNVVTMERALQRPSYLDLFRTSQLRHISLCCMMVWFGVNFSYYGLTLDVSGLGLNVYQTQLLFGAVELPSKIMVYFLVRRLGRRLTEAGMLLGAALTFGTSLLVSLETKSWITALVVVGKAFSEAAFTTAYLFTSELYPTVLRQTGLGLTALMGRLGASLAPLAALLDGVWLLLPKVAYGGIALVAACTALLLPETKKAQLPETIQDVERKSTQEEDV
Procedure: (§1) Briefly, HEK-293 cells were grown, at 37°C and 5% CO2, in Dulbecco’s modified Eagle’s medium, which was fortified with 10% fetal bovine serum, 1% minimal essential medium nonessential amino acids, and 1% antibiotic-antimycotic solution. A day before transfection, cells were seeded onto 24-well poly-D-lysine-coated plates at a density of 2 × 10^5 cells per well. After incubation at 37°C and 5% CO2 for 24 h, the expression plasmid and the empty vector were introduced separately into the HEK293 cells with Lipofectamine 2000 transfection reagent (Invitrogen, Carlsbad, CA, United States), according to the manufacturer’s protocol to yield transporter-expressing cells and mock cells, respectively.
(§2) Transport studies were performed 48 h after the transfection. […] Differential uptake between the transfected cells and mock cells was defined as net transport ratio (TransportTC/TransportMC ratio), where TransportTC and TransportMC are the transport rates of a test Danshen compound into transfected and mock cells, respectively. […] The determination was performed under linear uptake conditions by incubation for 5 min. Table 1 summarizes the final concentrations of the test Danshen compounds for different transporters. All the incubation samples were analyzed by liquid chromatography/mass spectrometry. […]

[2] = molecular target: T2, rat Oatp1b2 (Rattus norvegicus, UniProt Q9QZX8); experiment: Cellular transport assay, HEK-293 cells expressing rat Oatp1b2
T2 sequence (Q9QZX8 1-687): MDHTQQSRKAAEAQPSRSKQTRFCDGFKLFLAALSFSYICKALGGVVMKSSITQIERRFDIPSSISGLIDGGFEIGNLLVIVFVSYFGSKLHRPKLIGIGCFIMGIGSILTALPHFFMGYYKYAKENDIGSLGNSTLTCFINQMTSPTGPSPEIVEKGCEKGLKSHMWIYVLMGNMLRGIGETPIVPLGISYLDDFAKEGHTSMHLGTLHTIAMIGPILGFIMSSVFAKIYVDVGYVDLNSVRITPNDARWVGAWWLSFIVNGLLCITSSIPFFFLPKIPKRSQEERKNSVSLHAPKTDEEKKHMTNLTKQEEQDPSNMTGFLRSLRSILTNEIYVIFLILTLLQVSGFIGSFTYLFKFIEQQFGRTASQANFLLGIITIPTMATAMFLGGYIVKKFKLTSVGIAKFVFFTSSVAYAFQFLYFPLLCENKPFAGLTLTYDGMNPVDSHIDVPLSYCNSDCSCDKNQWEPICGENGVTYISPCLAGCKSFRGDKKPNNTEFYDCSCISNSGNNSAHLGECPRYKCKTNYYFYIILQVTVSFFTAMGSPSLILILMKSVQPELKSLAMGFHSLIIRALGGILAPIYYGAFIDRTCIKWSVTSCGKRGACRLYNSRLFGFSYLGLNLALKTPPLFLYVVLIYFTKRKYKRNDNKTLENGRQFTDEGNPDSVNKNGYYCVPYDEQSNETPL
Procedure: as §1, §2

O=C(O)C(O)Cc1ccc(O)c(O)c1 (stereo not drawn) [Tanshinol, tanshinol]
substrate of rat Oat2 [1]: substrates | microsomal CLint ([1]; rat, other cell line): 1.47 µL/min/mg | substrate of rat Oatp1b2 [2]: neither protocatechuic acid nor tanshinol was a substrate
